Experimental data from patent US11229664B2, “Treatment of myelosuppression” (priority 2012, dated 2022).
Where two headings read alike, the source gives them in different places.

With `O=C1[O][Pt]2([NH][C@@H]3CCCC[C@H]3[NH]2)[O]C1=O` [Oxaliplatin, reference compound] the “Average Weight” value (Day 4) was 20.40 g, the “Average Weight” value (Day 8) was 20.65 g and the “% Weight Loss or Gain” value (Day 11) was −3.36%. The “Average Weight” value (Day 18) was 20.45 g.
